Laboratory results: patent publication US20260124309A1, “STAT6 DEGRADERS AND USES THEREOF” (Kymera Therapeutics, Inc., priority 2023, published 2026)

Protein sequences, listed by entry. Tags and fused reporters are not part of them.
UniProt P42226, whole entry: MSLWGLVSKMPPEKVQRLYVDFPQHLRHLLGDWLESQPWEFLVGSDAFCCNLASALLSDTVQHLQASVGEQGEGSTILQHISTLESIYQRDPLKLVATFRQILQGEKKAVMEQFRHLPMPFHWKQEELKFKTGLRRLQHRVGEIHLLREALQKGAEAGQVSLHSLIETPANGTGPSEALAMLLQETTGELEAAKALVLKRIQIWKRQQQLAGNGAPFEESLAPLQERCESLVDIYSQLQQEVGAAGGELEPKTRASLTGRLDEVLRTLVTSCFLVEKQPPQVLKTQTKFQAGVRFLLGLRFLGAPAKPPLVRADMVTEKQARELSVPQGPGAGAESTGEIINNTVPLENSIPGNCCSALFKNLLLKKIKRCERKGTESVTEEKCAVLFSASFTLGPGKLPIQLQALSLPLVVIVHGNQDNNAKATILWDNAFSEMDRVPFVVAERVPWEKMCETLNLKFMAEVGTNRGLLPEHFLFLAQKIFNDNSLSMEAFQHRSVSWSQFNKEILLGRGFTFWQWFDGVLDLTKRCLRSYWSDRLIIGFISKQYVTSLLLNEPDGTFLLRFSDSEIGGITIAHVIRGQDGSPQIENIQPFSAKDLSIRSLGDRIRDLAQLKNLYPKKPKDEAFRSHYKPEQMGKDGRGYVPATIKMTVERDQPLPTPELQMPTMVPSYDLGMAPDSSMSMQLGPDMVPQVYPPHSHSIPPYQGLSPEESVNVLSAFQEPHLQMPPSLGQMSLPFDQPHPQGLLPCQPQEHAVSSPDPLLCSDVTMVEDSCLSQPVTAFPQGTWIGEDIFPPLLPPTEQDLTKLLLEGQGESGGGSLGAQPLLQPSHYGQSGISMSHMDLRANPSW

Molecular target: STAT6 (Homo sapiens, UniProt P42226)
Experiment: STAT6 ubiquitination in PBMC (diGly peptide enrichment, mass spectrometry)
Description: This example describes ubiquitination of STAT6 by compounds disclosed herein. Human STAT6 contains the following amino acid sequence:
PBMC Sample Preparation Protocol. Frozen PBMC (AllCells LP, CR, MNC, 100M) were thawed and washed with prewarned complete media (RPMI 1640+10% HIFBS+Pen/Strep prepared with RPMI 1640 (Gibco. #11-875-093, #15140-122 and R&D Systems, #S11550H)). The cells were resuspended in complete media at 1.25 million cells per mL in flasks and incubated overnight in a tissue culture incubator.
The next day, 0.72 μL or 2.4 μL of a 10 mM stock solution of degrader compound (10 mM of I-1, I-167, I-205, I-383, or I-452 in DMSO) was added to a final concentration of 30 nM or 100 nM. At the end of treatment (15 minutes), the cell culture was poured into 50 mL tubes (10 tubes for each 480 mL total volume). The 50 mL tubes were spun down at 4000×g for 2 minutes. The media was decanted, and cells washed with 30 mL PBS. All the cells were combined, and then spun again at 4000×g for 2 minutes. Wash solution was decanted. All tubes were washed once more with 25 mL PBS and combined into one tube. 200 μL the cells (0.8%) was set aside for quality control analysis. The rest of the cells were spun down at 4000×g for 2 minutes. The second wash solution was decanted, and cells spun down again at 4000×g for 1 minute. A 1 mL pipette was used to remove all PBS from the pellet of cells. The pellet of cells was snap frozen for 20 seconds in liquid nitrogen, then stored at −78° C.
Extract protein, reduce, and alkylate: 1800 μL of Urca buffer (8 M Urca, 100 mM Triethylammonium bicarbonate (TEAB). 1 mM ethylenediaminetetraacetic acid (EDTA), 1% Halt™ Protease and Phosphotase Inhibitor (Thermo Fisher Scientific), and 1% Pierce™ Universal Nuclease (Thermo Fisher Scientific) was added to each cell sample. Samples were probe sonicated for 15 seconds (3 times) using 40% amplitude. Protein concentrations of the resultant cell lysates were determined by using Pierce™ Rapid Gold BCA Protein Assay Kit (Product No. A53226).
The lysate mixture containing 20 mg total proteins was reduced at RT for 30 min by adding dithiothreitol (DTT) to the final concentration of 10 mM DTT. 2-iodo acetamid (IAA) was then added to a final concentration of 10 mM to alkylate the proteins. The lysate mixture was placed in the dark for 30 mins, then a further amount of DTT to again reach 10 mM final concentration was added to the lysate mixture to neutralize excess IAA. The lysate mixture was incubated at room temperature for 5 min, then 100 mM TEAB buffer at pH 8.0 was added to dilute the lysate mixture to a urea concentration of less than IM. Trypsin/Lys-C Protease was then added to the reduced and alkylated lysate mixture to provide a protein to enzyme ratio of 1:50. The mixture was digested at 37° C. overnight in an incubator with 500 rpm shaking. The mixture was then acidified to a pH of lower than 3 using trifluoro acetic acid (TFA) and gently mixed to quench the digestion process.
Peptide Desalting: 200 mg Sep-Pak C18 cartridges (Waters) were activated by adding twice 750 μL of methanol (MeOH). Cartridges were equilibrated by twice letting 700 μL 0.1% formic acid (FA) pass through as above. The acidified sample mixture was added to the cartridges and collected after passing through the cartridge. Cartridges were washed three times with 700 μL of 0.1% formic acid. Peptides were eluted using 700 L volumes of 50% acetonitrile (ACN)^+0.1% TFA and dried in a speed-vac concentrator.
DiGly Peptide Enrichment: Peptide samples containing 20 mg/sample were resuspended in 1.8 mL of 1×HS IAP Bind Buffer #1 from PTMScan® HS Ubiquitin/SUMO Remnant Motif (K-GG) Kit (#59322S). To that end, pellets were broken up mechanically by pipetting repeatedly, followed by shaking at room temperature for 5 min or placement in a sonicator bath for 2 min to ensure complete solubilization. The pH of peptide solutions was adjusted to 7.0 with 1M pH 7.0 TRIS base solution. […]

For `COc1cc(N2CCN(CCc3ccc(C4CCC(=O)NC4=O)cc3F)CC2)ccc1-c1cc(C2=CCCN(C(=O)CCn3ccnn3)C2)c(F)c2[nH]c(C(=O)N(C)C)cc12` (centres unmarked), the “% of Total” value (STAT6 diGly site K94) was 1.5 ± 0.3%, the “Intensity (E + 06)” value (STAT6 diGly site K94) was 7.40 ± 2.12 E + 06 and the “% of Total” value (STAT6 diGly site K107) was 0.5 ± 0.2%. The “Intensity (E + 06)” value (STAT6 diGly site K107) was 2.67 ± 0.71 E + 06, the “% of Total” value (STAT6 diGly site K108) was 2.8 ± 0.8% and the “Intensity (E + 06)” value (STAT6 diGly site K108) was 13.6 ± 4.6 E + 06. The “% of Total” value (STAT6 diGly site K124) was 0.6 ± 0.2%, the “Intensity (E + 06)” value (STAT6 diGly site K124) was 2.94 ± 0.62 E + 06 and the “% of Total” value (STAT6 diGly site K277) was 0.2 ± 0.4%. For the same compound, the “Intensity (E + 06)” value (STAT6 diGly site K277) was 1.27 ± 2.20 E + 06, the “% of Total” value (STAT6 diGly site K284) was 0.5 ± 0.2% and the “Intensity (E + 06)” value (STAT6 diGly site K284) was 2.15 ± 0.70 E + 06. The “% of Total” value (STAT6 diGly site K288) was 1.9 ± 0.4%, the “Intensity (E + 06)” value (STAT6 diGly site K288) was 9.40 ± 1.51 E + 06 and the “% of Total” value (STAT6 diGly site K307) was 2.1 ± 0.3%. For the same compound, the “Intensity (E + 06)” value (STAT6 diGly site K307) was 10.1 ± 1.1 E + 06, the “% of Total” value (STAT6 diGly site K319) was 5.7 ± 2.5% and the “Intensity (E + 06)” value (STAT6 diGly site K319) was 27.4 ± 10.2 E + 06. The “% of Total” value (STAT6 diGly site K504) was 41.1 ± 12.6%, the “Intensity (E + 06)” value (STAT6 diGly site K504) was 206 ± 90 E + 06 and the “% of Total” value (STAT6 diGly site K595) was 4.8 ± 0.4%. The “Intensity (E + 06)” value (STAT6 diGly site K595) was 23.1 ± 1.7 E + 06, the “% of Total” value (STAT6 diGly site K614) was 1.1 ± 0.5% and the “Intensity (E + 06)” value (STAT6 diGly site K614) was 4.94 ± 1.87 E + 06. For the same compound, the “% of Total” value (STAT6 diGly site K618) was 0.3 ± 0.1%, the “Intensity (E + 06)” value (STAT6 diGly site K618) was 1.60 ± 0.55 E + 06 and the “% of Total” value (STAT6 diGly site K630) was 28.7 ± 7.6%. The “Intensity (E + 06)” value (STAT6 diGly site K630) was 138 ± 28 E + 06, the “% of Total” value (STAT6 diGly site K636) was 1.2 ± 1.1% and the “Intensity (E + 06)” value (STAT6 diGly site K636) was 5.53 ± 4.68 E + 06. The “% of Total” value (STAT6 diGly site K647) was 7.1 ± 1.7% and the “Intensity (E + 06)” value (STAT6 diGly site K647) was 34.2 ± 6.0 E + 06.
